Earlier results, collected in paper PMC4648043, “Development of Small-Molecule Trypanosoma brucei N-Myristoyltransferase Inhibitors: Discovery and Optimisation of a Novel Binding Mode” (Chemmedchem, 2015).

Test system: T. brucei
Conditions: read-out: T. brucei EC50; previously published inhibitor; cited from earlier work

SMILES: Cc1nn(C)c(C)c1NS(=O)(=O)c1c(Cl)cc(-c2ccnc(N3CCNCC3)c2)cc1Cl [DDD85646]
- EC50: 2 nM
